This note sets out measurements from PubChem BioAssay AID1159606 (Sanford-Burnham Center for Chemical Genomics, 2016).

The list shows a part of the results, in another mix than the full data. The source made the active and inactive calls. Cut-off read from the data, not from the text of the source: active = inhibition above about 50%; inactive = the rest.

A short description of this experiment: inhibitors of TWEAK-Fn14 signaling, primary screen, luciferase reporter cells, uHTS (AID 1159606). The following applies: TWEAK-stimulated Fn14 reporter cells, luciferase luminescence, 8 h; at 10 µM; hits give high values. A general note: Reporter assays use an easily measured gene product as a stand-in for the process of interest.
As a reminder, the inhibition is the drop in the measured response relative to a control, in per cent. `CN(C(=O)Cc1ccc(Cl)c(Cl)c1)[C@H]1CC[C@@]2(CCCO2)C[C@@H]1N1CCCC1`: the inhibition is inactive: 1.82%.
